Laboratory results published in paper PMC8564539.

Legend:
Assay in all cases: AlphaScreen or HTRF; ALPHA: FLAG-tagged domain mixed with biotin-tagged domain (cell-free translation mixtures), streptavidin donor beads, anti-DYKDDDDK antibody with protein A acceptor beads; 100 mM Tris-HCl pH 8.0, 0.01% Tween 20, 1 mg/mL BSA; 25 °C, 24 h; median of duplicate reactions
CASP10_DED1-DED2 (human) = CASP10_DED1-DED2 (human) (UniProt Q92851)
FADD_DED-DD (human) = FADD_DED-DD (human) (UniProt Q13158)
FADD_DED (human) = FADD_DED (human) (UniProt Q13158)
CASP8_DED2 (human) = CASP8_DED2 (human) (UniProt Q14790)
CASP8_DED1-DED2 (human) = CASP8_DED1-DED2 (human) (UniProt Q14790)

“CFLAR_DED1-DED2 (from UniProt O15519 1-170) (domain or fragment)” showed an ALPHA signal (RLU) (CASP10_DED1-DED2 (human)) of 24600 RLU, an ALPHA signal (RLU) (FADD_DED-DD (human)) of 14100 RLU and an ALPHA signal (RLU) (FADD_DED (human)) of 2850 RLU. For the same substance, the ALPHA signal (RLU) (CASP8_DED2 (human)) was 5340 RLU and the ALPHA signal (RLU) (CASP8_DED1-DED2 (human)) was 4090 RLU.
